The values below come from patent US10285963B2, “Combination of metabolic bio-energetic and nutra-epigentic regulators, nutraceutical compounds in conventional and nanotechnologies combination to revert and prevent the chronic damage accelerated cellular senescence produced by diabetes and other degenerative chronic complex diseases” (priority 2015, dated 2019).

The data set concerns Artemia salina nauplii. Kind of data set: Artemia salina nauplii toxicity assay. The settings on record: any of the tested concentrations (62.5-1000 ppm), 24 h. The source says: Artemia salina is a crustacean sensitive to a wide range of compounds with biological activity and very different chemical structures. Michael et al. (Michael A. S. et al in Science, 1956, 123: 464) and Vanhaecke et al. (Vanhaecke et al in Ecotoxicol Environ Saf 1981, 5:382) proposed its use for toxicity testing. It is a test that allows conducting practically and economically toxicity studies of different nature substances. […] This model is accepted by the FDA (Food Drug Administration) and EPA (Environmental Protection Agency in 2002), as a test for evaluating the toxicity and ecotoxicity of pharmaceutical and/or food products.
In an Artemia salina hatcher, 0.5 g cysts of Artemia salina were hatched in artificial seawater at 37 g/L at a temperature of 27° C. with constant aeration for 24 h. In every 5 wells out of a 96-well plate, 0.1 mL of artificial seawater (37 g/L) was applied with a single-channel pipette with ten nauplii, separated from the hatcher and counted one by one to achieve an exact separation of 10 nauplii. […] After incubation period, A. salina nauplii alive and dead were counted with a stereoscopic microscope and % mortality was determined. Toxicity was expressed as percent mortality of A. salina nauplii: 0-10% non-toxic, moderately toxic 11-50%, 51-90% highly toxic and 100% extremely toxic, considering the Gualdron et al, scale. […]

For the molecule `N[C@@H](CS)C(=O)O` [cysteine], the “toxicity expressed as percent mortality of A. salina nauplii” value is “toxicity free”.
